A selection: hits, their analogues and other compounds. The true share with any hit is near 2.3%.
Nrf2 block – Nrf2 pathway inhibition; A549 ARE-Fluc reporter, luciferase luminescence, 18-24 h; hit rate 2.1% among 360,000; AID 504444; Potency, µM (highest dose often 46 µM), for the others: top-dose activity change, negative = inhibition, most hits filed as inhibitors; also: potency is read from the fitted curve at half-maximal effect; % is scaled to controls: 0 for no effect and ±100 for the full control effect; nearly all actives have a fitted effect of over 60% in size
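Cells were seeded and rested 2 h, then exposed to compounds for 18-24 h. CellTiter-Fluor was read first as a viability measure. BugLite was added 15 min before the final luminescent read of ARE-luciferase activity in A549 cells.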
Nrf2 activator – Nrf2 pathway activation; AREc32 ARE-luciferase reporter (MCF7-derived line), luminescence, 24 h; Potency, µM (highest dose often 46.1 µM), inactives show at the top dose activation, hits mostly activators; hit rate 0.31% among 410,000; also: potency is read from the fitted curve at half-maximal effect; % of control where 0% means no effect; nearly all actives have a fitted effect of over 65% in size
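AREc32 cells carrying an ARE-driven firefly luciferase reporter were seeded at 1000 cells/well in OPTI-MEM with 5% FBS, then exposed to compound for 24 hr at 37 deg C. Luminescence was read with Steady-Glo after 30 min at RT.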
GRP78 ERSR act – induces the endoplasmic reticulum stress response in human glioma cells; Potency, µM, for the others: at the highest dose activation, actives largely listed as activators; U87-MG GRP78 promoter luciferase reporter, 16 h; AID 602332; hit rate 0.02% among 420,000; also: potency is read from the fitted curve at half-maximal effect; series mostly up to about 76 µM; % of control where 0% means no effect; nearly all actives have a fitted effect of over 35% in size
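ERSR induction read as luciferase luminescence (Bright-Glo, 10 min at room temperature) in stably transfected human U87-MG glioma cells exposed to compounds for 16 h, using GRP78 as sensor.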
A549 viability – kills or reduces viability of A549 cells in Nrf2 counter-screen; hit rate 0.16% among 390,000; A549 ARE-Fluc cells, CellTiter-Fluor viability, 18-24 h; Potency, µM (titrated, usually from 46 µM), for the others: at the highest dose activity change, negative = cytotoxicity, usual class: inhibitors; AID 504648; also: potency is read from the fitted curve at half-maximal effect; % is scaled to controls: 0 for no effect and ±100 for the full control effect
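A549 ARE_Fluc cells in 5% FBS OPTI-MEM were exposed to compounds in concentration-response for 18-24 h at 37 deg C. Viability was read by CellTiter-Fluor fluorescence (Ex 405/Em 525) after 30 min, before the luciferase read.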
Mito fusion act – mitochondrial division inhibition or fusion activation; Potency, µM (titrated, usually from 46.1 µM), for inactives: at the highest dose growth rescue (activation), hits mostly activators; hit rate 0.23% among 320,000; S. cerevisiae fusion-defective mutant growth rescue, CellTiterGlo 48 h; AID 485298; also: potency is read from the fitted curve at half-maximal effect; % of control where 0% means no effect; nearly all actives have a fitted effect of over 45% in size
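Compounds are tested for their ability to restore growth of mitochondrial fusion-defective yeast strains at non-permissive 37C in YPEG medium over 48 hours. Viability is quantified by luciferase luminescence.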
miR-21 reporter – raises the signal of a miR-21 reporter | HeLa miR-21 FLuc reporter, luciferase, 48 h | Potency, µM (doses to about 38.3 µM), without a hit: at the top dose reporter change, positive = more light | 340,000 tested, under 10 active | AID 2288; active = well fitted rising curve with a large enough effect; inconclusive = small, poorly fitted or top-dose-only effect; inactive = no such curve, though single readings can be large or run the other way;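 note: % of control where 0% means no effect; miR-21 action dims this reporter so a rising signal means less miR-21 action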
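Compounds were titrated across several concentrations (up to approximately 40 uM) and incubated 48 hours with HeLa miR-21-FLuc reporter cells (miR-21 target sequence downstream of FLuc, endogenous miR-21). Readout was firefly luciferase luminescence after lytic detection reagent.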
* hit, by the source's call; [ ] = another dose, or the depositor's remark. Unless noted, calls follow the shape of the dose curve; as a rule, active = well fitted curve in the direction sought with a large enough effect; inconclusive = small, poorly fitted or top-dose-only effect, or another doubt; inactive = no such curve, though single readings can be large; an effect the other way counts as inactive or inconclusive.

COc1ccc(NC(=O)c2cccc(N3C(=O)C4C5C=CC(C6CC56)C4C3=O)c2)c(OC)c1 (configuration not stated) was read as Nrf2 block inconclusive, Nrf2 activator 0.1%, GRP78 ERSR act -4.0%, A549 viability -7.4%, Mito fusion act 3.1% and miR-21 reporter 15.9%.
Screening CCOC(=O)C1=C(COC(=O)CCC(=O)c2ccc(C)cc2)NC(=O)NC1C (configuration not stated) returned Nrf2 block 1.6%, Nrf2 activator -0.1%, GRP78 ERSR act -1.0%, A549 viability 3.6% and Mito fusion act -2.3%.
For CC(O)C1CCC2C3CCC4CC(O)CCC4(C)C3CCC12C (configuration not stated) the results were GRP78 ERSR act -1.7%.
`COc1ccc(-c2noc(CCCC(=O)NC3CCCC3)n2)cc1` gave Nrf2 block 11.6µM*, Nrf2 activator -1.2%, GRP78 ERSR act -12.1%, A549 viability inconclusive, Mito fusion act 8.5% and miR-21 reporter inconclusive.
Cc1cccc(-c2noc(CCC(=O)NC3CCCCC3)n2)c1 was read as Nrf2 block -9.2%, Nrf2 activator 0.1%, GRP78 ERSR act -2.5%, A549 viability -2.5%, Mito fusion act -5.7% and miR-21 reporter -6.8%.
Screening COc1ccc(-c2noc(CCC(=O)NC3CCCCC3)n2)cc1 returned Nrf2 block 16.4µM*, Nrf2 activator -0.5%, GRP78 ERSR act -1.2%, A549 viability -11.1%, Mito fusion act 8.5% and miR-21 reporter -2.8%.
For Cc1cccc(-c2noc(CCCC(=O)NC3CCCC3)n2)c1 the results were Nrf2 block 9.2µM*, Nrf2 activator 0.6%, GRP78 ERSR act -2.4%, A549 viability 1.6%, Mito fusion act 21.3% and miR-21 reporter 16.2%.
For COc1ccc(-c2noc(CCC(=O)NC3CCCCCC3)n2)cc1 the results were Nrf2 block 16.1%, Nrf2 activator 0.2%, GRP78 ERSR act 2.9%, A549 viability 1.3%, Mito fusion act 29.7% and miR-21 reporter -9.3%.
O=C(COC(=O)c1ccco1)Nc1ccc(N2CCOCC2)cc1 was read as Nrf2 block 16.2%, Nrf2 activator -0.6%, GRP78 ERSR act 3.8%, A549 viability 11.8% and Mito fusion act 16.3%.
Screening CCCCNC(=O)N1CCOCCOCCN(C(=O)NCCCC)CCOCC1 returned Nrf2 block 3.6%, Nrf2 activator -0.1%, GRP78 ERSR act -3.5%, A549 viability -2.0%, Mito fusion act -1.5% and miR-21 reporter -3.3%.
`C/C=C(\CS(=O)(=O)c1ccccc1)S(=O)(=O)c1ccccc1` gave Nrf2 block 5.8%, Nrf2 activator 12.6µM*, GRP78 ERSR act -9.2%, A549 viability -18.0%, Mito fusion act -6.1% and miR-21 reporter 22.9%.
For C/C(CS(=O)(=O)c1ccccc1)=N\O the results were Nrf2 block -12.6%, Nrf2 activator 0.3%, GRP78 ERSR act 2.4%, A549 viability 0.1%, Mito fusion act -1.5% and miR-21 reporter 1.7%.
Screening O=c1[nH]c2cc3c(cc2cc1CN(CCCO)C(=S)NCc1ccco1)OCO3 returned Nrf2 block 14.2%, Nrf2 activator -0.7%, GRP78 ERSR act -3.4%, A549 viability -0.6%, Mito fusion act -2.8% and miR-21 reporter 1.0%.
For COc1cc2c(cc1OC)CN(C(=S)Nc1cccc(Cl)c1C)CC2 the results were Nrf2 block 18.4µM*, Nrf2 activator -0.1%, GRP78 ERSR act -3.6%, A549 viability -9.0%, Mito fusion act -5.5% and miR-21 reporter 3.5%.
For COc1ccccc1NC(=S)N1CCc2cc(OC)c(OC)cc2C1 the results were Nrf2 block -11.7%, Nrf2 activator 0.1%[9.22 µM], GRP78 ERSR act -3.7%, A549 viability 4.2%, Mito fusion act -5.6% and miR-21 reporter -7.4%.
Screening O=c1c2[nH]cnc2n(-c2ccc(F)cc2)c(=O)n1Cc1ccccc1 returned Nrf2 block 23.2%, Nrf2 activator 0.5%, GRP78 ERSR act 7.2%, A549 viability 0.4%, Mito fusion act -1.5% and miR-21 reporter -12.6%.

Filtered by structure: the entries above with a furan ring, fused or not.
O=C(COC(=O)c1ccco1)Nc1ccc(N2CCOCC2)cc1 was read as Nrf2 block 16.2%, Nrf2 activator -0.6%, GRP78 ERSR act 3.8%, A549 viability 11.8% and Mito fusion act 16.3%.
Screening O=c1[nH]c2cc3c(cc2cc1CN(CCCO)C(=S)NCc1ccco1)OCO3 returned Nrf2 block 14.2%, Nrf2 activator -0.7%, GRP78 ERSR act -3.4%, A549 viability -0.6%, Mito fusion act -2.8% and miR-21 reporter 1.0%.
